Results from patent US4849207A, “Porphyrin derivatives” (Nihon Medi-Physics Co., Ltd., priority 1985, dated 1989).

Tested on: cancer cells of the pancreas
Test: Laser irradiation to an extracted organ (excited fluorescent spectrum)
Type: in vivo, golden hamsters
Conditions: golden hamster, 5 mg i.v., after 24 hours
Procedure: Laser irradiation to an extracted organ (excited fluorescent spectrum):
To each of golden hamsters (five animals being grouped) transplaned with nitrosoamine-induced cancer cells of the pancreas, DTPA-10EG PPB-Me (5 mg) diluted with 0.1M citrate buffer (1 ml) was administered intravenously 14 to 21 days after the transplantation, and cancer cells and other organs were extracted. To each of the organs as extracted, N2 -pulsed laser (N2 337 nm, 2 ns 400-1000 nm) was irradiated, and excited fluorescent spectrum was measured after 24 hours. Taking the peak wavelength of NADH at 470 nm as the standard (i.e. 1), the wavelength at 600 to 900 nm was calculated. The results are shown in Table 1, from which it is understood that a porphyrin-related substance has a remarkably selective affinity to cancer cells.

Substance	excited fluorescence at 600 to 900 nm relative to NADH peak at 470 nm (=1): Cancer	excited fluorescence at 600 to 900 nm relative to NADH peak at 470 nm (=1): Kidney	excited fluorescence at 600 to 900 nm relative to NADH peak at 470 nm (=1): Liver	excited fluorescence at 600 to 900 nm relative to NADH peak at 470 nm (=1): Lung	excited fluorescence at 600 to 900 nm relative to NADH peak at 470 nm (=1): Serum
Ethylene glycol In-mono-diethylenetriaminetetraacetic acid-acetate mono-7c-pyropheophorbate [In--DTPA--7EG pyroPPB]	1.25	0.42	0.52	0.47	0.45
Ethylene glycol In-monodiethylenetriaminetetraacetic acid-acetate mono-10b-methylpheophorbate [In--DTPA--10EG PPB--Me]	1.03	0.12	0.43	0.19	0.34
